In the assay the test system is adrenocorticotropin hormone (ACTH). The experiment in a line: ACTH reduction in adrenalectomized rats, dose response-repeat dose. The conditions noted are these: repeat dosing 700nmol/kg (baseline, 48 and 96 hours), 24 hours; mean (SEM); FIG. 12. The source says: Male, Sprague Dawley rats (226-250g/ 55-58 days old) underwent adrenalectomy surgery at Charles River Laboratories prior to shipment. Once delivered, postoperative care was provided by facility personnel. Rats (n=9-10 per group) were maintained single-housed with a 12:12 light/dark cycle. To compensate for the removal of adrenal mineralocorticoids and promote weight maintenance, they were supplemented with 0.9% NaCl and 1% sucrose in their drinking water. Additional pellets, medium high fat/sweet (Research Diets) were provided daily on the cage floor in addition to regular rat chow. Rats were allowed to recover and habituate for a week. Cage change occurred at least two days prior to the start of the experiment and again after one week if required for longer experiments. Water changes occurred every 3-4 days after experiments to avoid additional stress.
All experiments were conducted in the morning, to avoid circadian differences in adrenocorticotropic hormone (ACTH). Prior to collection of a whole blood sample via the tail vein, experimental animals were placed in a rat warmer 15-20 minutes prior to the designated time points. The animals were then placed in a rat restrainer and a 24-gauge catheter was placed in the tail vein. The blood (0.15-0.2mL/ sample) was collected into a 600µL Sarstedt tube that contained 1.2-2.0 mg EDTA-K3/mL. […]

For “Ac-Asp-Leu-Thr-D-Phe-His-Leu-Leu-Arg-Glu-Val-Leu-Glu-Nle-K*-Arg-Glu-Glu-Gln-cVal-Ala-Gln-E#-Ala-Glu-K#-Asn-Arg-Lys-Leu-Nle-Glu-cVal-Ala-CONH2”, the “percentage ACTH reduction versus vehicle (normalized to t=0)” value came out at 85.4%.

The values above are taken from EP4847524A2, “FATTY ACID CONJUGATED CYCLIC PEPTIDES” (dated 2026).
